Reference: publication doi:10.1101/2022.03.03.481873v1

Test system: O=C(O)CCC(=O)C1=CC=C[C@@H](O)[C@@H]1C(=O)O
Assay: purified protein
Settings: 50 mM Tris pH 8.0, 0.1 mM MnCl2, 25 °C, Amycolatopsis numbering

EfNSAR/OSBS (Enterococcus faecalis V583; R266Q)
Km: 19 ± 2 µM
kcat: 0.08 ± 0.002 s⁻¹
